System: Aedes aegypti mosquitoes
Assay: Topical bioassay on adult female Aedes aegypti mosquitoes (knockdown 1 h, mortality 24 h; Colby calculation for combinations)
Assay type: in vivo
Conditions: single active, 3%; listed as 7,8-Dihydo-α-ionone
Text: Components of a composition can have a synergistic or additive effect on insecticidal activity. Components have an additive effect when the effect of the combination is equal to the sum of the effects of each individual component. In contrast, components have a synergistic effect when the effect of the combination exceeds the sum of the effects of the components when applied individually. The effect (E) of a combination of two compounds may be calculated using the Colby formula (1) (S. R. Colby, “Calculating Synergistic and Antagonistic Responses of Herbicide Combinations”, Weeds 1967, 15, 20-22):
If the actual insecticidal kill rate is the calculated value (E), then the action of the combination is additive. If the actual insecticidal kill rate exceeds the calculated value (E), then the action of the combination is super-additive, that is, a synergistic effect is present. If the insecticidal kill rate is lower than the calculated value (E), then the action of the combination is considered antagonistic. […]
The condition of the mosquitoes in each cup was recorded at one hour and 24 hours after initial treatment. […] The percent mortality for each treatment was calculated by summing the mortalities of each replicate then calculating the percent dead from the total number of mosquitoes. […]

7,8-dihydro-α-ionone
% MORTALITY AFTER 24 HRS: 50%

Source: patent publication US10349662B2, “Insecticidal compositions and methods of using the same” (priority 2011, dated 2019)
